Results: EP0440303A1 (PROBICOM RESEARCH B.V., priority 1990, dated 1991)

Biological target: T1, tripeptidase of L.lactis subsp. cremoris Wg2 (Lactococcus lactis subsp. cremoris, UniProt P0C2T7)
T1 sequence (P0C2T7 1-413): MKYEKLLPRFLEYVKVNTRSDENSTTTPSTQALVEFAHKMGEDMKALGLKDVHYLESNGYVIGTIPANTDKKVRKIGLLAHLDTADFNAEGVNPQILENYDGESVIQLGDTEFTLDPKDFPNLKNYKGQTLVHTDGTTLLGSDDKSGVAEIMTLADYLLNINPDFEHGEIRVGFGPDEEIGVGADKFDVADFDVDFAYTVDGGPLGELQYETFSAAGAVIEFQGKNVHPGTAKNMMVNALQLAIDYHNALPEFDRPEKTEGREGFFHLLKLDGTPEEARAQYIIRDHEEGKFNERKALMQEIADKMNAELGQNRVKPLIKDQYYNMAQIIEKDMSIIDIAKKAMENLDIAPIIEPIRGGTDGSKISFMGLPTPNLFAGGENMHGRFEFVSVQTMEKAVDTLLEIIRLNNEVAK
Experiment: Substrate specificity: peptide hydrolysis analysed by TLC
Assay type: biochemical
Design: key: + : hydrolysis; - : no hydrolysis
Conditions: peptide hydrolysis by the purified peptidase, 2 mM substrate in 20 mM HEPES (pH 7.0), 60 min at 30°C

| activity | Structure (SMILES) |
| --- | --- |
| - | C[C@H](N)C(=O)N1CCC[C@H]1C(=O)NCC(=O)O [Ala-Pro-Gly] |
| - | CC(C)C[C@H](NC(=O)[C@@H]1CCCN1C(=O)[C@@H](N)C(C)C)C(=O)O [Val-Pro-Leu] |
